Values quoted from earlier work in article PMC6956362 (ACS Medicinal Chemistry Letters, 2019).

Sequences of proteins named here, by UniProt entry; tags and fusion partners are left off.
UniProt P30989, whole entry: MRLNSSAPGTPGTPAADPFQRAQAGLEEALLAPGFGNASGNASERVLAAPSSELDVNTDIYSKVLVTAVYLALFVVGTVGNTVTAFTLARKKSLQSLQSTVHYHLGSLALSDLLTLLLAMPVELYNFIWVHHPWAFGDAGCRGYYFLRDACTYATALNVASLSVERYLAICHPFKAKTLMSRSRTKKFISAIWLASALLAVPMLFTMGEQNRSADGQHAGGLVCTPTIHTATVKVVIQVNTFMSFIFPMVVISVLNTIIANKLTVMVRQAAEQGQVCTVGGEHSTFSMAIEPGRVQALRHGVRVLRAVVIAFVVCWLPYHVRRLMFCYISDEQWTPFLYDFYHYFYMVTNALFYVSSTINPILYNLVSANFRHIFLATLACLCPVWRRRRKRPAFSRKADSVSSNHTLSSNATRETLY

Molecular target: NTS1R (Homo sapiens) (UniProt P30989)
Experiment: radioligand binding
Conditions: cited from earlier work

**Q.** For “[3H]2 (radiolabeled neurotensin(8-13) derivative) 8-13 (from UniProt P30990)”, which Kd is on record?
**A.** Its Kd is 0.29 nM.
